This is a selection; strong and weak results do not stand in their true shares. The source made the active and inactive calls.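 How the source made its calls: active means every valid replicate shows activation above 250% relative to neutral control wells; inactive means the rest, any valid replicate at or below 250%.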

The assay in a line: restored growth of temperature-sensitive Mot1-301 yeast – S. cerevisiae, ATP luminescence, 38.5C, SUMOylation pathway inhibitor project, primary screen (AID 2716).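 Further: OY570 slx delta 5 strain wells were the positive control but not used for scaling.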 Conditions: S. cerevisiae Mot1-301 growth rescue, at 18.8 µM, stronger effect = higher value, percent above DMSO median, 100 means doubled.
Turning to `Clc1n[nH]nc1-c1nn[nH][15n]1`, the growth rescue is inactive: 9.04%.
The same measure for `CC(C)(C)C(=O)NC(Sc1ncccn1)C(Cl)(Cl)Cl` (stereo not given): inactive: -2.09%; for `CCOP(=O)(Nc1ccc(C)cn1)OCC`: inactive: -8.4%; for `CN(CCCl)Cc1cc(Cl)c(NC2=NCCN2)c(Cl)c1`: inactive: 1.29%.
Turning to `O=P1(Nc2ccccn2)COc2ccccc2OC1`, the growth rescue is inactive: -1.7%.
The same measure for `CCC1=CC2Cc3nc4ccc(Cl)cc4c(N)c3C(C1)C2` (stereo not given): inactive: 13.6%.
To `CCOP(=O)(NC(=NC(C)c1ccccc1)NC(C)c1ccccc1)OCC` (stereo not given) belongs inactive: 40.6%; to `O=[As](O)(c1ccccc1Br)c1ccccc1Br`, inactive: 2.16%; to `CC1(CBr)Cn2c(nc3ccccc3c2=O)S1` (stereo not given), inactive: -24.2%.
To `CC(C)/C=N\N=C(\N)N[N+](=O)[O-]` belongs inactive: 135%; to `CN(C(=O)Cc1ccc(Cl)c(Cl)c1)[C@@H]1CCCC[C@H]1N1CCCC1`, inactive: -15%.
As for `COc1ccccc1CNC(=O)COC(=O)C(O)(c1ccccc1)c1ccccc1`, the growth rescue was inactive: -12.4%.
The same measure for `O=C(/C=C/c1ccccc1)OC1CN2CCC1CC2` (stereo not given): inactive: 4.87%; for `CN(C)C1(CNC(=O)c2ccc(S(C)(=O)=O)cc2)CCCCC1`: inactive: 17.1%; for `Cc1nn(-c2ccccc2)c2c1P(=O)(N1CCOCC1)N(C)C(c1ccccc1)=N2` (stereo not given): inactive: 171%.
To `CC1CCC(C(C)C)C(OP(=O)(Nc2ccccn2)c2ccccc2)C1` (stereo not given) belongs inactive: 13.4%.
With `Cc1ccc(C(=O)OC2CN3CCC2CC3)cc1` (stereo not given), the growth rescue was inactive: 211%.
The same measure for `O=[As](O)(c1cccs1)c1cccs1`: inactive: 545%; for `Cc1ccc(OCC(=O)OC2CN3CCC2CC3)cc1` (stereo not given): inactive: 6.07%.
To `O=P1(Nc2ccc(Br)cn2)COc2ccccc2OC1` belongs inactive: -19.7%.
To `NS(=O)(=O)c1cccc(NC(=O)COC(=O)C(O)(c2ccccc2)c2ccccc2)c1` belongs inactive: -15.9%; to `Nc1cccc([As](=O)(O)c2ccccc2)c1`, inactive: 36%; to `O=P1(Nc2ncccn2)COc2ccccc2OC1`, inactive: -1.91%.
In the case of `Nc1ccccc1[As](=O)(O)c1ccccc1`, the growth rescue is inactive: -15.2%.
To `O=C(O)COc1ccc([As](=O)(O)O)cc1[N+](=O)[O-]` belongs inactive: 12.4%; to `CS(=O)(=O)c1cc([N+](=O)[O-])c2no[n+]([O-])c2c1`, inactive: 75.2%.
For the compound `CCOP1(=S)c2c(C)nn(CCC#N)c2N=C(c2ccccc2F)N1C` (stereo not given), the growth rescue is inactive: 1.82%.
To `O=P(Nc1nccs1)(Oc1ccccc1)Oc1ccccc1` belongs inactive: 9.68%; to `O=P(Nc1nccs1)(c1ccccc1)c1nc2ccccc2s1` (stereo not given), inactive: 13.3%; to `O=[N+]([O-])c1ccc2c(c1)nnn2O`, inactive: 13.5%.
On to `CN(C)C(=O)c1cc([N+](=O)[O-])cc2c1-c1c(cc([N+](=O)[O-])cc1[N+](=O)[O-])C2=O`, for which the growth rescue is inactive: 60.3%.
The same measure for `CN(C(=O)Cc1ccc(Cl)c(Cl)c1)[C@H]1CC[C@@]2(CCCO2)C[C@@H]1N1CCCC1`: inactive: -2.97%; for `N#CCCN(C(=O)COC(=O)C(O)(c1ccccc1)c1ccccc1)c1ccc(F)cc1`: inactive: 18.6%.
To `CCOP1(=S)c2c(C)nn(CCC#N)c2N=C(c2ccc(F)cc2)N1C` (stereo not given) belongs inactive: 14.7%.
`CN(C(=O)Cc1ccccc1)[C@@H]1CC[C@]2(CCCO2)C[C@H]1N1CCCC1`: the growth rescue was inactive: -1.43%.
As to `NC(=O)Nc1ccc([As](=O)(O)O)cc1`, the growth rescue was inactive: 5.98%.
Turning to `Cc1cccc(OCC(=O)OC2CN3CCC2CC3)c1` (stereo not given), the growth rescue is inactive: 6.58%.
`O=[As](O)(c1cccc(O)c1)c1cccc(O)c1`: the growth rescue is inactive: -8.2%.
The same measure for `O=[As](O)(O)c1cccnc1`: inactive: -9.37%; for `COc1cc(C(=O)NCC2(N3CCOCC3)CCCCC2)cc(Cl)c1OC(C)C`: inactive: 65%.
To `CS(=O)(=O)c1ccc(Cl)c(NC(=O)COC(=O)C(O)(c2ccccc2)c2ccccc2)c1` belongs inactive: 12.9%; to `O=C(OC1CN2CCC1CC2)c1ccc(Cl)cc1` (stereo not given), inactive: 11.9%.
Turning to `COc1cc(C2NCCC3(OCCO3)C2(C)C)cc(OC)c1OC` (stereo not given), the growth rescue is inactive: 6.69%.
To `CCOP(=O)(Nc1cccc2ccccc12)OCC` belongs inactive: -5.92%.
As to `CCCOP(=S)(Nc1nc(N)cc(=O)[nH]1)OCCC`, the growth rescue is inactive: 9.41%.
To `Nc1cccc2c([As](=O)(O)O)cccc12` belongs inactive: -22.3%; to `Cc1ccc(NCCc2c([N+](=O)[O-])cc([N+](=O)[O-])cc2[N+](=O)[O-])cc1`, inactive: -8.67%; to `COc1ccc2nc(NP(=O)(c3ccccc3)c3ccccc3)sc2c1`, inactive: 24.7%.
To `COc1cc(I)ccc1[As](=O)(O)O` belongs inactive: 11.2%; to `O=C(OC1CN2CCC1CC2)C12CC3CC(CC(C3)C1)C2` (stereo not given), inactive: 50%; to `Cc1cc(=O)[nH]c(N[N+](=O)[O-])n1`, inactive: 7.81%.
In the case of `Cc1c2c(nc3ccccc13)SC(C(Cl)Cl)C2` (stereo not given), the growth rescue was inactive: -7.24%.
With `COc1ccc(N/C(=N/P(=O)(N2CCOCC2)N2CCOCC2)N2CCOCC2)cc1`, the growth rescue was inactive: -1.16%.
Regarding `Cc1ccc2nc3c(c(C)c2c1)CC(C(Cl)Cl)S3` (stereo not given), the growth rescue was inactive: 2.07%.
Turning to `Cc1ccc(OP(=O)(Nc2ccc([N+](=O)[O-])cn2)Oc2ccc(C)cc2)cc1`, the growth rescue was inactive: 254%.
To `O=[As](O)(c1ccc(O)cc1)c1ccccc1O` belongs inactive: -12.4%; to `C[As](=O)(O)c1cccc(C(=O)O)c1`, inactive: -4.65%; to `COc1cc(C(=O)NCC2(N3CCOCC3)CCCCC2)ccc1OCC(C)C`, inactive: -24.1%.
In the case of `CC(C)NC(=O)NP(=O)(Oc1ccccc1)Oc1ccccc1`, the growth rescue was inactive: -0.00085%.
The same measure for `CCN(CC)C(=S)SC(NC=O)C(Cl)(Cl)Cl` (stereo not given): inactive: 11.2%; for `O=[N+]([O-])c1cc([N+](=O)[O-])c(-c2ccn[nH]2)s1`: inactive: -30%; for `CC(C)c1ccc(OP(=O)(Nc2ccccn2)Oc2ccccc2F)cc1` (stereo not given): inactive: 6.83%.
To `ClCCSc1nnc(-c2cccnc2)o1` belongs inactive: -1.41%.
The same measure for `Cc1cc(SC(NC(=O)c2ccccc2)C(Cl)(Cl)Cl)nc(C(C)C)n1` (stereo not given): inactive: -1.47%; for `CCOC(=O)Nc1ccc([As](=O)(O)O)c(O)c1`: inactive: -4.05%.

(Values after PubChem BioAssay AID2716 (Broad Institute, 2010).)
